Target: Histamine H3 receptor (Rattus norvegicus, UniProt Q9QYN8)
Test: In vitro binding affinity for rat histamine H3 receptor using [3H]N-alpha-methylhistamine
Summary of the method: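 Radioligand binding used membranes from cells transfected with cloned human or rat H3 receptors.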

Chains of the proteins cited; added tags and fusions are not shown. Lines headed by an entry give the natural chain unless they say otherwise; changes in a name come on top.
UniProt Q9QYN8: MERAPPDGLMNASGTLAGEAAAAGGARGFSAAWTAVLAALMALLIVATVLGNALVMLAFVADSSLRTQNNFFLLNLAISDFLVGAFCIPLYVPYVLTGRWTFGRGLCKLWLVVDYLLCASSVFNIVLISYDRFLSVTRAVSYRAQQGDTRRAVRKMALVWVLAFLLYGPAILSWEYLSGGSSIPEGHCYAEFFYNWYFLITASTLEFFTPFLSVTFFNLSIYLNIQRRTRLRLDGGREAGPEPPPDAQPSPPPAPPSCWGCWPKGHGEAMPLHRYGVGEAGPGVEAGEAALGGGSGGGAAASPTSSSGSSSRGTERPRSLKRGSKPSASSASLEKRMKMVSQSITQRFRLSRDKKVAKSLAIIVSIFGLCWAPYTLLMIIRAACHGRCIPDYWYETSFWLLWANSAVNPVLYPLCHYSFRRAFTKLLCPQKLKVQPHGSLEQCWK

Ki: 1.23 nM
SMILES: C[C@@H]1CCCN1CCc1cc2cc(-c3ccc(C#N)cc3)ccc2o1

From ChEMBL document CHEMBL1141118, “Synthesis and SAR of 5-amino- and 5-(aminomethyl)benzofuran histamine H3 receptor antagonists with improved potency” (J Med Chem, 2005)
